ALDH1A1 block: ALDH1A1 (human) enzyme inhibition; Potency, µM (highest dose often 75.3 µM), without a hit: top-dose activity, negative = inhibition, most hits filed as inhibitors; hit rate 7.3% among 220,000; P00352; Purified ALDH1A1, NADH fluorescence, propionaldehyde substrate; active = well fitted inhibition curve with a large enough effect, not every such curve was filed as active; inconclusive = small, poorly fitted or top-dose-only effect, or another doubt; inactive = no such curve, though single readings can be large or run the other way;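 note: potency is the fitted concentration of half-maximal effect; plate controls were no enzyme wells and a reference inhibitor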
JMJD2E inh: JMJD2E (human) inhibition | Potency, µM (titrated, usually from 57.1 µM), for inactives: at the highest dose activity change, negative = inhibition, most hits filed as inhibitors | JMJD2E catalytic domain, FDH-coupled NADH fluorescence (FDH is formaldehyde dehydrogenase) | AID 2147 | hit rate 1.6% among 230,000; active = well fitted inhibition curve with a large enough effect, not every such curve was filed as active; inconclusive = small, poorly fitted or top-dose-only effect, or another doubt; inactive = no such curve, though single readings can be large or run the other way;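 note: potency is the fitted concentration of half-maximal effect; 0% = wells with enzyme and -100% = buffer wells without enzyme; nearly all actives have a fitted effect of over 50% in size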
miR-21 reporter: raises the signal of a miR-21 reporter | HeLa miR-21 FLuc reporter, luciferase, 48 h | Potency, µM (doses to about 38.3 µM), for the others: at the highest dose reporter change, positive = more light | 340,000 tested, under 10 active | AID 2288; active = well fitted rising curve with a large enough effect; inconclusive = small, poorly fitted or top-dose-only effect; inactive = no such curve, though single readings can be large or run the other way;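 also: % of control where 0% means no effect; miR-21 action dims this reporter so a rising signal means less miR-21 action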
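HeLa miR-21-FLuc reporter line, endogenous miR-21; 2000 cells/well in DMEM/10% FBS; compound titration up to ~40uM final, 48 h, 37 degree Celsius; luciferase detection reagent, 15 min lysis, CCD luminescence.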
G9a inh: G9a (human) methyltransferase inhibition; Q96KQ7; G9a H3K9 monomethylation, AlphaScreen, 2 h; Potency, µM (highest dose often 102 µM), inactives show at the top dose activity, negative = inhibition, usual class: inhibitors; hit rate 8.8% among 350,000; note: potency is the fitted concentration of half-maximal effect; % is set by controls: 0 for no effect and ±100 for the full control effect; nearly all actives have a fitted effect of over 75% in size
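AlphaScreen detection with an anti-monomethyl H3K9 antibody quantified product after a 2 h room-temperature reaction containing 500 nM biotinylated H3K9 peptide, 20 µM SAM and 20 nM enzyme, which had been preincubated 15 min with compound.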
LMNA splice mod: changes lamin A minigene splicing in HeLa cells. hit rate 0.01% among 200,000. HeLa LMNA splicing GFP/RFP minigene ratio, 48 h. Potency, µM (doses to about 46.1 µM), for the others: at the highest dose ratio change, negative = inhibition, hits mostly inhibitors; active = well fitted inhibition curve with a large enough effect in the signal ratio, with a control signal flat, not every such curve was filed as active; inconclusive = small, poorly fitted or top-dose-only effect, or effect the other way, or a change in a side signal; the % refers to the signal ratio; note: potency is the fitted concentration of half-maximal effect; % is set by controls: 0 for no effect and ±100 for the full control effect
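S3 HeLa cells stably expressing lamin A-EGFP splicing minigene plus DsRed2, 600 cells/well, 48 h compound exposure at 37C. Laser-scanning cytometry; analysed as GFP (500-530 nm)/RFP (575-640 nm) total intensity ratio; 0.5% DMSO vehicle.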
Sfp PPTase inh: qHTS Assay for Inhibitors of Bacillus subtilis Sfp phosphopantetheinyl transferase (PPTase). 4'-phosphopantetheinyl transferase ffp (Bacillus subtilis), Q9F4F7. Biochemical Sfp PPTase activity, qHTS. Potency, µM, inactives show max response, negative = inhibition, usual class: inhibitors. hit rate 3.5% among 310,000; active means well fitted inhibition curve with a large enough effect; inconclusive means small, poorly fitted or top-dose-only effect, or another doubt; inactive means no such curve, though single readings can be large or run the other way;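 further: the enzyme is Sfp with the accession as filed and its product quenches rhodamine fluorescence; potency means the concentration at half of the fitted maximal effect; 0% = enzyme reaction without inhibitor and -100% = no enzyme wells; top concentration of the series not given in the record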
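Sfp 15 nM + cpd, 15 min RT; start w/ rhodamine-CoA 5 uM, BHQ-2-YbbR 12.5 uM (final); 50 mM Hepes pH 7.6, 10 mM MgCl2, 0.01% NP-40, 0.01% BSA; read 525/598 nm at 0 and 30 min.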
An asterisk follows results filed as active; ? = inconclusive; . = no result given; ! = repeats disagree; [ ] = remark or other dose. A selection: hits, their analogues and other compounds. The true share with any hit is near 13%. Unless noted, calls come from the whole dose curve; as a rule, active = well fitted curve in the direction sought with a large enough effect; inconclusive = small, poorly fitted or top-dose-only effect, or another doubt; inactive = no such curve, though single readings can be large; an effect the other way counts as inactive or inconclusive.

#1 COc1cc(C2SCCS2)cc(Br)c1Oc1ncccc1[N+](=O)[O-]
#2 CCc1ccc(NC(=O)c2sc3nc(C)cc(C)c3c2NC(=O)c2ccccc2)cc1
#3 COc1ccc(CNC(=O)C(CCSC)NS(=O)(=O)c2ccc3c(c2)oc(=O)n3C)cc1 (stereo not drawn)
#4 NC(=O)CC[C@@H](N)C(=O)O
#5 N[C@@H](CCS(=O)O)C(=O)O
#6 CC(C)(C)c1ccc(CNc2cc(N3CCOCC3)ccc2[N+](=O)[O-])cc1
#7 CC(=O)N1CCN(c2ccc([N+](=O)[O-])c(-n3nc(C)cc3C)c2)CC1
#8 Cc1cc(C)n(-c2nc3ccccc3nc2N2CCN(C(=O)c3ccccc3)CC2)n1
#9 O=[N+]([O-])c1ccc(N2CCOCC2)cc1N1CCCCC1
#10 Cc1cc(C)n(-c2cc(N3CCN(C(=O)c4cccc(Br)c4)CC3)ccc2[N+](=O)[O-])n1
assay / compound	1	2	3	4	5	6	7	8	9	10
ALDH1A1 block	?	.	.	-1%	5%	1.6µM*	-2%	13µM*	5.6µM*	14µM*
JMJD2E inh	-15%	.	.	.	.	-15%	0%	-2%	-6%	-12%
miR-21 reporter	11%	-16%	-1%	.	.	-13%	0%	-2%	-12%	18%
G9a inh	10µM*	7%[59 µM]	8%[59 µM]	36%[59 µM]	38%[59 µM]	25µM*	25%[59 µM]	-8%[59 µM]	-41%	?
LMNA splice mod	.	.	?	?	.	?	7%	-6%	-4%[46 µM]	6%
Sfp PPTase inh	10%	.	.	-8%	40µM*!	-6%	2%	16%	-7%	-5%

Next part, overlapping the part above by 3 compounds.
#8 Cc1cc(C)n(-c2nc3ccccc3nc2N2CCN(C(=O)c3ccccc3)CC2)n1
#9 O=[N+]([O-])c1ccc(N2CCOCC2)cc1N1CCCCC1
#10 Cc1cc(C)n(-c2cc(N3CCN(C(=O)c4cccc(Br)c4)CC3)ccc2[N+](=O)[O-])n1
#11 COc1ccc(OCc2nc3ccccc3n2C(C)c2ccccc2)cc1 (stereo not drawn)
#12 CNc1cc(N2CCN(S(=O)(=O)N(C)C)CC2)ccc1[N+](=O)[O-]
#13 O=C(COc1ccccc1Cl)N1CCN(c2ccc(F)cc2)CC1
#14 O=C(c1ccccc1Br)N1CCN(c2ccc([N+](=O)[O-])c(N3CCOCC3)c2)CC1
#15 O=C(COc1ccccc1Cl)N1CCN(c2ccc([N+](=O)[O-])c(N3CCOCC3)c2)CC1
#16 CN(C)S(=O)(=O)N1CCN(c2ccc([N+](=O)[O-])c(N3CCCCC3)c2)CC1
#17 O=[N+]([O-])c1ccc(N2CCCC2)cc1N1CCCC1
#18 CCN(Cc1ccccc1)C(=O)Cn1c(=O)n(CC(=O)N2CCCCC2)c(=O)c2sccc21
#19 COCCNc1c(-c2cc3ccc(C)c(C)c3[nH]c2=O)nc2ccccn12
#20 Cc1cc(C)cc(N2CC(c3nc(-c4ccccc4C)no3)CC2=O)c1 (stereo not drawn)
assay / compound	8	9	10	11	12	13	14	15	16	17	18	19	20
ALDH1A1 block	13µM*	5.6µM*	14µM*	.	-11%	-6%	7.9µM*	11µM*	4µM*	14µM*	.	-5%	.
JMJD2E inh	-2%	-6%	-12%	.	-6%	4%	-1%	-8%	-12%	-1%	.	-2%	.
miR-21 reporter	-2%	-12%	18%	-6%	4%	-4%	4%	0%	-17%	-1%	7%	0%	5%
G9a inh	-8%[59 µM]	-41%	?	?	-29%	0%[59 µM]	-33%	?	?	-1%[12.7 µM]	?	?	25%[59 µM]
LMNA splice mod	-6%	-4%[46 µM]	6%	.	-5%[46 µM]	4%	-29%[46 µM]	?	?	14%	.	13%[46 µM]	-1%[46 µM]
Sfp PPTase inh	16%	-7%	-5%	.	10%	4%	-3%	-11%	-3%	-8%	9%	12%	.

#21 CC(C)N1CCN(C(=O)c2ccc(OC3CCN(CCc4ccccc4)CC3)cc2)CC1
#22 COc1ccc(/C(N)=N/OC(=O)Cc2cccs2)cc1OC
#23 COc1ccc(/C(N)=N/OC(=O)Cc2cccs2)cc1
#24 COc1ccc(N2CCN(C(=O)COC(=O)CNC(=O)c3cccc(OC(F)F)c3)CC2)cc1
#25 CCc1nc(SCC(=O)c2ccc3c(c2)OCCO3)c2ccccc2n1
#26 CCCc1nc(SCC(=O)c2ccc(OC)cc2)c2ccccc2n1
#27 O=C(CSc1nc(Cc2ccccc2)nc2ccccc12)c1ccc2c(c1)OCCO2
#28 COc1ccccc1CNC(=O)c1c(O)nc2cc(C)ccn2c1=O
#29 COc1ccc(NC(=O)CN2C(=O)/C(=C3\SC(=S)N(CCC(=O)O)C3=O)c3ccccc32)cc1
#30 Cc1ccc(NC(=O)CN2C(=O)/C(=C3\SC(=S)N(C4CCS(=O)(=O)C4)C3=O)c3ccccc32)cc1 (stereo not drawn)
assay / compound	21	22	23	24	25	26	27	28	29	30
ALDH1A1 block	.	?	4%	.	?	10µM*	?	.	.	1.4µM*
JMJD2E inh	.	0%	-8%	.	?	-9%	?	.	.	3%
miR-21 reporter	-17%	-37%	-66%	.	-9%	-3%	3%	-1%	3%	-8%
G9a inh	-4%	10%[59 µM]	108%[59 µM]	-10%[12.7 µM]	8.9µM*	?	?	4%[59 µM]	5%	50µM*
LMNA splice mod	.	?	17%	.	?	.	?	.	.	-6%
Sfp PPTase inh	7%	79µM*	6%	.	50µM*	79µM*	-14%	.	12%	-3%

#31 O=C(CN1C(=O)/C(=C2\SC(=S)N(C3CCS(=O)(=O)C3)C2=O)c2ccccc21)Nc1ccccc1 (stereo not drawn)
#32 COc1ccc2nc(-n3c(O)c(C4=c5ccccc5=NC4=O)[nH]c3=S)sc2c1
#33 CCOC(=O)C1=C(CSc2nc(CC)c(C)cc2C#N)OC(N)=C(C#N)C1c1ccccc1 (stereo not drawn)
#34 CCOC(=O)C1=C(CSc2nc(C)cc(C)c2C#N)OC(N)=C(C#N)C1c1cccs1 (stereo not drawn)
#35 CCOC(=O)C1=C(CSc2nc3c(cc2C#N)CN(C)CC3)OC(N)=C(C#N)C1c1ccc(Cl)cc1 (stereo not drawn)
#36 CCOC(=O)C1=C(CSc2nc(-c3ccccc3)ccc2C#N)OC(N)=C(C#N)C1c1ccc(OC)cc1 (stereo not drawn)
#37 Cc1ncc(COP(=O)(O)O)c(CN)c1O
#38 Cc1ccc2nc(-c3ccc(NC(=O)Cc4ccccc4)cc3)sc2c1
#39 O=C(O)CSCC(=O)Nc1ccc(-c2nc3ccccc3s2)cc1
#40 Cc1ccc2nc(-c3ccc(NC(=O)CSCC(=O)O)cc3)sc2c1
assay / compound	31	32	33	34	35	36	37	38	39	40
ALDH1A1 block	7.1µM*	-12%	?	14µM*	?	?	.	.	?	.
JMJD2E inh	-6%	14%	17%	?	?	57%	.	.	?	?
miR-21 reporter	-7%	-14%	-8%	-2%	-6%	-66%	.	-48%	-21%	-33%
G9a inh	25µM*	?	40µM*	?	.	32µM*	-7%[12.7 µM]	2%[59 µM]	45µM*	4%[12.7 µM]
LMNA splice mod	-11%	?	7%	4%	8%	-5%	.	.	12%[46 µM]	.
Sfp PPTase inh	28µM*	50µM*	?	-8%	-31%	-17%	1%	.	?	0%

#41 Cc1ccc2nc(-c3ccc(NC(=O)COCC(=O)O)cc3)sc2c1
#42 Cc1ccc2nc(-c3ccc(NC(=O)CCN4C(=O)c5ccccc5C4=O)cc3)sc2c1
#43 O=C(NCCCO)/C(=C\c1ccco1)NC(=O)c1ccco1
#44 CC(C)CC(NC(=O)/C(=C\c1ccco1)NC(=O)c1ccco1)C(=O)O (stereo not drawn)
assay / compound	41	42	43	44
ALDH1A1 block	?	6%	.	.
JMJD2E inh	?	-2%	.	.
miR-21 reporter	-47%	-48%	0%	-1%
G9a inh	50µM*	45µM*	71µM*	32µM*
LMNA splice mod	.	-11%	.	.
Sfp PPTase inh	-2%	79µM*	-7%	-20%

Source: PubChem (National Center for Advancing Translational Sciences (NCATS))
